# Test results from patent US8586369B2, “Ion channel-forming peptides” (The Regents of the University of California, priority 2007, dated 2013).
# Test: Stability toward hydrolysis in acidic and basic solutions (HPLC analysis)
# Type: physicochemical
substance,measurement,setting,value
gramicidyl glycine,hydrolysis in acidic solution,"pH 3.5, 23° C.",not observed after 24 hours
same,hydrolysis in basic solution,"pH 10.4, 23° C., HPLC analysis",observed after 3 hours
